Molecules are shown by their SMILES. Where only a bound is given, the exact number is not on record here.

The test system of experiment [1] is Delta and mu opioid receptors (Mus musculus). Kind of experiment: Selectivity for delta opioid receptor over mu opioid receptor.
Experiment [2] has as its system Delta (Mus musculus) and kappa (Rattus norvegicus) opioid receptors. Kind of experiment: Selectivity for delta opioid receptor over kappa opioid receptor.
Experiment [3] concerns the target Delta-type opioid receptor (Mus musculus) (UniProt P32300). Kind of experiment: Inhibition of (-)-[9-3H]bremazocine binding to delta opioid receptor at 10 uM.
The target is the same in experiment [4]. The experiment in a line: Inhibition of (-)-[9-3H]bremazocine binding to delta opioid receptor expressed in HEK293 cells.

In the case of `CN(C)c1nnc(-c2cccc(C(C)(C)C)c2)n1-c1cccc(O)c1`, the Selectivity ratio in experiment [1] and in experiment [2] was more than 9.5 in each case.

Consider `Oc1cccc(-n2cnnc2-c2ccc(-c3ccccc3)cc2)c1`, for which the Selectivity ratio in experiment [1] and in experiment [2] was more than 6.66 throughout.

`CN(C)c1nnc(-c2ccc(-c3ccccc3)cc2)n1-c1cccc(O)c1`: the Selectivity ratio in experiment [1] and in experiment [2] was more than 76.9 throughout.

For orientation: inhibition means how much of the control response was suppressed. For orientation: Ki means the equilibrium dissociation constant of an inhibitor or competing ligand from its target. Low values mean tighter binding, high ones weaker binding. `CN(C)Cc1nnc(-c2ccc(C(C)(C)C)cc2)n1-c1cccc(O)c1` registered an inhibition in experiment [3] of 88%. The Ki in experiment [4] is 460 nM.

Take `CN(C)CCc1nnc(-c2ccc(C(C)(C)C)cc2)n1-c1cccc(O)c1`: the Selectivity ratio in experiment [1] and in experiment [2] was more than 11.1 each time.
